These results are taken from patent US10035794B2, “Heterocyclic derivatives and their use in the treatment of neurological disorders” (NOVARTIS AG, priority 2011, dated 2018).

Each structure is given as a SMILES string.

This experiment in a line: Test 4: Inhibition of Cellular Release of Amyloid Peptide 1-40. The format is cell-based, Chinese hamster. The following applies: Cricetulus griseus, CHO, 24 h; read-out: Amyloid-β1-40 release IC50. How it is done:
Chinese hamster ovary cells are transfected with the human gene for amyloid precursor protein. The cells are plated at a density of 8000 cells/well into 96-well microtiter plates and cultivated for 24 hours in DMEM cell culture medium containing 10% FCS. The test compound is added to the cells at various concentrations, and the cells are cultivated for 24 hours in the presence of the test compound.

For orientation: IC50 means the concentration that gives 50% inhibition. In the case of `NC(=S)c1ccc(C(=O)Nc2cccc(C3(CF)COCC(N)=N3)n2)nc1` (centres unmarked) [Example 7, 5-Thiocarbamoyl-pyridine-2-carboxylic acid [6-(5-amino-3-fluoromethyl-3,6-dihydro-2H-[1,4]oxazin-3-yl)-pyridin-2-yl]-amide], the IC50 is 640 nM. For `NC1=NC(CF)(c2ccnc(NC(=O)c3ccc(Cl)cn3)c2)COC1` (centres unmarked) [Example 14, 5-Chloro-pyridine-2-carboxylic acid [4-(5-amino-3-fluoromethyl-3,6-dihydro-2H-[1,4]oxazin-3-yl)-pyridin-2-yl]-amide] the value was 660 nM.
